The list shows a part of the results, in another mix than the full data. Inconclusive results are not listed. The source made the active and inactive calls. Calls follow the shape of the dose curve; as a rule, active = well fitted inhibition curve with a large enough effect; inconclusive = small, poorly fitted or top-dose-only effect; inactive = no such curve, though single readings can be large or run the other way.
Potency is read from the fitted curve at half-maximal effect.

This test can be described thus: qHTS Assay for Inhibitors of the ERK Signaling Pathway using a Homogeneous Screening Assay. Also: nearly all actives have a fitted effect of over 55% in size. To be noted: HEK293-V1b, vasopressin-stimulated pERK AlphaScreen. From the text: qHTS Assay for Inhibitors of the ERK Signaling Pathway using a Homogeneous Screening Assay
NIH Chemical Genomics Center [NCGC]
NIH Molecular Libraries Screening Centers Network [MLSCN]
Assay Submitter (PI): Dr. Wei Zheng, NCGC/NIH
The Ras/extracellular-signal-regulated kinase (ERK) mitogen activated protein (MAP) kinase signaling pathway (ERK1/2 cascade) plays is a key role in transmitting signals from the cell surface to the nucleus (Nishida and Gotoh 1993; Chang and Karin, 2001). The cascade is initiated by the small G-protein Ras, which recruits Raf […], where activation occurs. Alternatively, this pathway can be activated by elevating intracellular cAMP.
Activation of the ERK pathway is essential in increased cell division and cell survival. […]
HEK293 cells stably expressing type-1 vasopressin receptor (V1b) were maintained in DMEM medium (Invitrogen, Carlsbad, CA) at 37C under a humidified atmosphere containing 5% CO2 and 95% air. […] The ERK phosphorylation in cells was determined using an AlphaScreen assay kit provided by PerkinElmer. […] AC50 values were determined from concentration-response data modeled with the standard Hill equation. […]
(10) Detect the assay plate in an EnVision plate reader (PerkinElmer) using the AlphaScreen detection mode. […]
Background: Quantitative high-throughput screening tests each substance at several concentrations.
Take `COc1cccc(-c2cc(=O)c3ccccc3o2)c1N`: the Potency was active: 3.98 µM.

The record behind these values is PubChem BioAssay AID995 (National Center for Advancing Translational Sciences (NCATS), 2007).
